Patent US20090082276A1 (priority 2006, published 2009)

Details: remaining active peptide estimated as EC50, 4C/EC50, 37C

SMILES: CCCCCCCCCCCCCCCC(=O)N[C@@H](CCC(=O)NCCCC[C@H](NC(=O)[C@@H]1CCCN1C(=O)[C@@H]1CCCN1C(=O)[C@@H]1CCCN1C(=O)[C@H](C)NC(=O)CNC(=O)[C@H](CO)NC(=O)[C@H](CO)NC(=O)[C@@H]1CCCN1C(=O)CNC(=O)CNC(=O)[C@H](CCCN)NC(=O)[C@H](CCCN)NC(=O)[C@@H](NC(=O)C(C)(C)NC(=O)[C@H](CCC(N)=O)NC(=O)C(C)(C)NC(=O)[C@H](Cc1ccc(O)cc1)NC(=O)[C@H](CCCN)NC(=O)C(C)(C)NC(=O)[C@H](CC)NC(=O)[C@H](C)NC(=O)[C@H](CC(C)C)NC(=O)[C@H](CCC(N)=O)NC(=O)C(C)(C)NC(=O)[C@H](CCCNC(=N)N)NC(=O)[C@H](CC(C)C)NC(=O)[C@H](CCCN)NC(=O)[C@@H](NC(=O)[C@H](Cc1ccc(OC)cc1)NC(=O)[C@H](CCC(N)=O)NC(=O)[C@H](CCC(=O)O)NC(=O)[C@@H](NC(=O)[C@H](Cc1ccccc1)NC(=O)[C@@H](NC(=O)[C@H](C)NC(=O)[C@H](CC(=O)O)NC(=O)[C@H](CO)NC(=O)[C@H](Cc1c[nH]cn1)NC(=O)CCCCC)C(C)C)[C@@H](C)O)[C@@H](C)O)[C@@H](C)CC)C(N)=O)C(=O)O [Agonist P603]
- Estimated peptide stability after 24 h in rat serum at 37° C., % stab: 67%
